According to paper PMC10305115, “Development of a Minimalistic Physiologically Based Pharmacokinetic (mPBPK) Model for the Preclinical Development of Spectinamide Antibiotics” (Pharmaceutics, 2023):

How the values were obtained:
in vitro [1] = conditions: Sprague-Dawley, rat, whole blood
[2] = healthy rats, plasma, IV SD 10 mg/kg
[3] = Minimalistic PBPK model, mouse (fitting and simulation); conditions: healthy mice; for AUCinf Fold Difference (predicted vs observed): plasma
in vitro [4] = conditions: whole blood

For CN[C@@H]1[C@H](O)[C@H](NC)[C@H]2O[C@]3(O)[C@H](O[C@@H]2[C@H]1O)O[C@H](C)C[C@H]3NC(=O)Cc1ccc(O)cn1 [Spectinamide 1810, 2-(5-hydroxypyridin-2-yl)-N-((2R,4R,4aS,5aR,6S,7S,8R,9S,9aR,10aS)-4a,7,9-trihydroxy-2-methyl-6,8-bis(methylamino)decahydro-2H-benzo[b]pyrano [2,3-e] [1,4]dioxin-4-yl)acetamide], the blood plasma ratio at 1 h (in vitro [1]) was 0.785, the “AUCinf Fold Difference (predicted vs observed)” value [2] was 1.61 and the “AUCinf Liver Fold Difference” value ([3]; IV QD5 10 mg/kg) was 1.37. The “AUCinf Liver Fold Difference” value ([3]; IV SD 10 mg/kg) was 1.25, the “AUCinf Lung Fold Difference” value ([3]; IV QD5 10 mg/kg) was 1.14 and the “AUCinf Lung Fold Difference” value ([3]; IV SD 10 mg/kg) was 1.48. For the same compound, the “AUCinf Fold Difference (predicted vs observed)” value ([3]; IV QD5 10 mg/kg) was 1.23, the “AUCinf Fold Difference (predicted vs observed)” value ([3]; IV SD 10 mg/kg) was 1.04 and the “AUCinf Fold Difference (predicted vs observed)” value ([3]; SC QD5 50 mg/kg) was 1.63. The “AUCinf Fold Difference (predicted vs observed)” value ([3]; SC QD5 200 mg/kg) was 1.65, the “AUCinf Fold Difference (predicted vs observed)” value ([3]; SC SD 46 mg/kg) was 1.05 and the “AUCinf Fold Difference (predicted vs observed)” value ([3]; SC SD 50 mg/kg) was 1.70. For the same compound, the “AUCinf Fold Difference (predicted vs observed)” value ([3]; SC SD 200 mg/kg) was 1.67, the “AUCinf Spleen Fold Difference” value ([3]; IV QD5 10 mg/kg) was 1.19 and the “AUCinf Spleen Fold Difference” value ([3]; IV SD 10 mg/kg) was 1.03. It also gave a blood plasma ratio at 1 h (in vitro [4]; BALB/c (mouse), Sprague-Dawley (rat), mouse and rat) of 0.5 to 0.8 and a blood plasma ratio at 1 h (in vitro [4]; BALB/c, mouse) of 0.604.

Where two headings read alike, the source gives them in different places.
